# How the values were obtained:
# Amino acid sequences for entries named in this document (tags omitted). A change or cut given only in a name is not applied to a line headed by its entry.
# UniProt P41143, whole entry: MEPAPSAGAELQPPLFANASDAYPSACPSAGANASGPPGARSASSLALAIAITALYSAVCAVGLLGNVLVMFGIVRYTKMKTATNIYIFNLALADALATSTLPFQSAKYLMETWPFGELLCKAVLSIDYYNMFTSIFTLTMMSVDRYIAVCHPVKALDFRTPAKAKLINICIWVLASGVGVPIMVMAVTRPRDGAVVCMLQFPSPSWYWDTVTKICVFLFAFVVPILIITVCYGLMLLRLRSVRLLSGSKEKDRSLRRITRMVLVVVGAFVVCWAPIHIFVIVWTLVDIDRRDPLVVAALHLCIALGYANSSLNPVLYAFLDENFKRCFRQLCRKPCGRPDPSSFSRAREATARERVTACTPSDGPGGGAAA
# UniProt P41145: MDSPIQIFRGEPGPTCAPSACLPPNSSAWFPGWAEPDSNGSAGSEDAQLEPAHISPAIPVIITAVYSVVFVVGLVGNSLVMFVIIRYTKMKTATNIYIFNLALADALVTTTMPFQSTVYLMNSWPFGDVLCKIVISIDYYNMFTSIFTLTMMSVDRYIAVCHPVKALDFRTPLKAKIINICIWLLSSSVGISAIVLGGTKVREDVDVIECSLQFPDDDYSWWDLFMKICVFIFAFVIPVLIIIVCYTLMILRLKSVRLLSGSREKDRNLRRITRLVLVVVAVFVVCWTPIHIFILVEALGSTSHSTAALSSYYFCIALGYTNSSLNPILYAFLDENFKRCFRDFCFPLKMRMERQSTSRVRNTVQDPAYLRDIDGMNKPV
# [1] = biological target: Delta-type opioid receptor (Homo sapiens) (UniProt P41143)
# [2] = biological target: Kappa-type opioid receptor (Homo sapiens) (UniProt P41145)
structure (smiles),measurement,setting,value
CC(C)[C@@H](CN1CCCCC1)NC(=O)[C@H]1Cc2ccc(O)cc2CN1,Ke,[1],> 3000 nM
same,Ke,[2],6.8 nM

# Source: ChEMBL document CHEMBL4033769, “Simple Tetrahydroisoquinolines Are Potent and Selective Kappa Opioid Receptor Antagonists” (ACS Med Chem Lett, 2017)
